Bioassay records from PubChem.
Most compounds without a hit are left out; they make up all but 13% or so of the library.
ALDH1A1 inh: blocks purified human ALDH1A1 activity; Purified ALDH1A1, NADH fluorescence, propionaldehyde substrate; 7.3% of 220,000 active; Potency, µM (top dose mostly 75.3 µM), for the others: at the highest dose activity, negative = inhibition, usual class: inhibitors; active = well fitted inhibition curve with a large enough effect, not every such curve was filed as active; inconclusive = small, poorly fitted or top-dose-only effect, or another doubt; inactive = no such curve, though single readings can be large or run the other way;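 note: potency is the fitted concentration of half-maximal effect; plate controls were no enzyme wells and a reference inhibitor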
JMJD2E inh: blocks human JMJD2E demethylase activity | B2RXH2 | JMJD2E catalytic domain, FDH-coupled NADH fluorescence (FDH is formaldehyde dehydrogenase) | Potency, µM (highest dose often 57.1 µM), for inactives: at the top dose activity change, negative = inhibition, actives largely listed as inhibitors | 1.6% of 230,000 active | AID 2147; active = well fitted inhibition curve with a large enough effect, not every such curve was filed as active; inconclusive = small, poorly fitted or top-dose-only effect, or another doubt; inactive = no such curve, though single readings can be large or run the other way;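 note: potency is the fitted concentration of half-maximal effect; 0% = wells with enzyme and -100% = buffer wells without enzyme; nearly all actives have a fitted effect of over 50% in size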
miR-21 FLuc: miR-21 reporter, rising signal; HeLa miR-21 FLuc reporter, luciferase, 48 h; Potency, µM (doses to about 38.3 µM), for inactives: at the highest dose reporter change, positive = more light; 340,000 tested, under 10 active; AID 2288; active = well fitted rising curve with a large enough effect; inconclusive = small, poorly fitted or top-dose-only effect; inactive = no such curve, though single readings can be large or run the other way;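 further: % of control where 0% means no effect; miR-21 action dims this reporter so a rising signal means less miR-21 action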
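HeLa miR-21-FLuc reporter line, endogenous miR-21; 2000 cells/well in DMEM/10% FBS; compound titration up to ~40uM final, 48 h, 37 degree Celsius; luciferase detection reagent, 15 min lysis, CCD luminescence.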
G9a block: blocks human histone lysine methyltransferase G9a | Q96KQ7 | G9a H3K9 monomethylation, AlphaScreen, 2 h | Potency, µM (doses to about 102 µM), for inactives: at the highest dose activity, negative = inhibition, most hits filed as inhibitors | 8.8% of 350,000 active | AID 504332; note: potency is the fitted concentration of half-maximal effect; % is set by controls: 0 for no effect and ±100 for the full control effect; nearly all actives have a fitted effect of over 75% in size
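Chemiluminescent proximity detection of H3K9 monomethylation, read after 10 min bead incubation in the dark. Reaction: 20 nM G9a, 500 nM biotin-H3K9 peptide, 20 uM SAM cofactor, 2 h, room temperature, following 15 min enzyme-compound preincubation.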
Sfp inh: qHTS Assay for Inhibitors of Bacillus subtilis Sfp phosphopantetheinyl transferase (PPTase) | 4'-phosphopantetheinyl transferase ffp (Bacillus subtilis), Q9F4F7 | Biochemical Sfp PPTase activity, qHTS | Potency, µM, for inactives: max response, negative = inhibition, hits mostly inhibitors | 3.5% of 310,000 active | AID 1490, 2009; active = well fitted inhibition curve with a large enough effect; inconclusive = small, poorly fitted or top-dose-only effect, or another doubt; inactive = no such curve, though single readings can be large or run the other way;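 also: the enzyme is Sfp with the accession as filed and its product quenches rhodamine fluorescence; potency is read from the fitted curve at half-maximal effect; 0% = enzyme reaction without inhibitor and -100% = no enzyme wells; top concentration of the series not given in the record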
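With Hepes-Na pH 7.6 buffer containing 10 mM MgCl2, Sfp (15 nM) modified BHQ-2-YbbR (12.5 uM) using rhodamine-CoA (5 uM). Two reads 30 minutes apart at 525/598 nm yielded each well's rate.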
LMNA splice mod: changes lamin A minigene splicing in HeLa cells; HeLa LMNA splicing GFP/RFP minigene ratio, 48 h; 0.01% of 200,000 active; AID 1487; Potency, µM (titrated, usually from 46.1 µM), for the others: at the highest dose ratio change, negative = inhibition, hits mostly inhibitors; active = well fitted inhibition curve with a large enough effect in the signal ratio, with a control signal flat, not every such curve was filed as active; inconclusive = small, poorly fitted or top-dose-only effect, or effect the other way, or a change in a side signal; the % refers to the signal ratio; note: potency is the fitted concentration of half-maximal effect; % is set by controls: 0 for no effect and ±100 for the full control effect
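S3 HeLa cells stably expressing lamin A-EGFP splicing minigene plus DsRed2, 600 cells/well, 48 h compound exposure at 37C. Laser-scanning cytometry; analysed as GFP (500-530 nm)/RFP (575-640 nm) total intensity ratio; 0.5% DMSO vehicle.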
* hit, by the source's call; u = inconclusive; x = not tested or not shown; [ ] = another dose, or the depositor's remark. Unless noted, calls come from the whole dose curve; as a rule, active = well fitted curve in the direction sought with a large enough effect; inconclusive = small, poorly fitted or top-dose-only effect, or another doubt; inactive = no such curve, though single readings can be large; an effect the other way counts as inactive or inconclusive.

Molecule	ALDH1A1 inh	JMJD2E inh	miR-21 FLuc	G9a block	Sfp inh	LMNA splice mod
O=C(CSc1ccc(-c2cccs2)nn1)Nc1ccccc1C(F)(F)F	x	x	-15%	-35%[59 µM]	x	x
CC(=O)c1cccc(NC(=O)CSc2ccc(-c3ccco3)nn2)c1	x	x	4%	32µM*	20µM*	x
COc1ccc(-c2ccc(SCC(=O)Nc3cccc(C(C)=O)c3)nn2)cc1OC	-5%	-12%	19%	-22%	11%	x
O=C(CSc1ccc(-c2cccs2)nn1)Nc1cccc(F)c1	x	x	11%	18µM*	x	x
O=C(CSc1ccc(-c2ccco2)nn1)c1cccc([N+](=O)[O-])c1	22µM*	9%	-12%	10µM*	14µM*	u
CC(NS(=O)(=O)c1ccc2c(c1)CC(C)N2C(=O)C1CC1)c1ccccc1 (stereo not given)	x	x	4%	5%	4%	x
COc1ccc(Nc2nc(NN)nc(Nc3ccc(OC)cc3)n2)cc1	x	x	9%	-1%	14%	x
Cc1nc2c(sc3nc4c(cc32)COC(C)(C)C4)c(=O)n1Cc1ccccc1	u	-2%	-9%	14%[12.7 µM]	-1%	-7%
CCCc1nc2c(sc3nc4c(cc32)COC(C)(C)C4)c(=O)n1Cc1ccco1	0.89µM*	u	-1%	-28%[12.7 µM]	28µM*	0%
CCCc1nc2c(sc3nc4c(cc32)COC(C)(C)C4)c(=O)n1CCN(CC)CC	18µM*	-13%	-1%	u	-1%	u
CCCc1nc2c(sc3nc4c(cc32)COC(C)(C)C4)c(=O)n1CCN(C)C	u	8%	1%	16%[12.7 µM]	11%	x
Cc1nn(C(=O)c2ccc(Br)cc2)c(C)c1S(=O)(=O)N1CCOCC1	x	x	1%	u	x	14%[46 µM]
O=Cc1cnc(N2CCCCC2)s1	3.5µM*	2%	-11%	6%	27%	16%[46 µM]
COc1cccc(CNC(=O)C2Cc3cc(S(=O)(=O)N4CCCCCC4)ccc3N2C(C)=O)c1 (stereo not given)	x	x	-3%	25%[59 µM]	x	18%[46 µM]
NC(=O)c1nsc(C(=O)N(CCc2ccccc2)C(C(=O)NC2CCCC2)c2ccco2)c1N (stereo not given)	u	u	5%	18%[2.33 µM]	4%	2%
O=C(NC1CCCCC1)C(c1ccncc1)N(Cc1ccccc1)C(=O)c1ccc(-c2ccccc2)[nH]1 (stereo not given)	22µM*	u	15%	28%[0.501 µM]	-2%	u
COc1ccc(CN(C(=O)c2ccc(-c3ccccc3)[nH]2)C(C(=O)NCC2CCCO2)c2ccc(C)o2)cc1 (stereo not given)	10µM*	u	7%	-11%[0.501 µM]	-3%	5%[0.0737 µM]
O=C(NCC(=O)N(CCc1ccccc1)C(C(=O)NC1CCCC1)c1cccnc1)c1ccco1 (stereo not given)	-1%	5%	-11%	u	15%	-18%
O=C(NC1CCCCC1)C(c1ccco1)N(CCc1ccccc1)C(=O)C(F)(F)F (stereo not given)	32µM*	-1%	-4%	6%[59 µM]	21%	9%
O=C(NCC(=O)N(CCc1ccccc1)C(C(=O)NC1CCCCC1)c1ccncc1)c1ccco1 (stereo not given)	-5%	-8%	-11%	40µM*	-4%	-6%
COC(=O)C1=C(C(=O)OC)[C@@H]2N(C)c3ccc(OC)cc3[C@@]23C[C@@H](C(=O)OC)N(S(=O)(=O)c2c(C)noc2C)C3=N1	7%[13.5 µM]	8%[11.4 µM]	x	x	9%	u
NS(=O)(=O)c1ccc(CNC(=O)c2sccc2-c2ccccc2)cc1	x	x	-2%	38%	9%	x
CS(=O)(=O)c1ccc(C(=O)Nc2ccc(N3CCCC3)cc2)c(Cl)c1	2%	-1%	-7%	10µM*	2%	0%[46 µM]
CS(=O)(=O)c1ccc(C(=O)Nc2ccc(N3CCOCC3)cc2)c(Cl)c1	14%	0%	1%	-7%	22%	32%[46 µM]
CN(c1ccccc1)S(=O)(=O)c1ccc(Cl)c(C(=O)Nc2ccc(N3CCOCC3)cc2)c1	5%	1%	14%	50µM*	16%	x
O=C(Nc1ccc(N2CCCC2)cc1)c1cc(Br)ccc1Cl	x	x	4%	8.9µM*	9%	x
Cc1ccc(NC(=O)c2cc(S(=O)(=O)c3ccccc3)ccc2Cl)cc1	10µM*	14%	19%	11%[2.33 µM]	12%	u
O=C(c1ccc2c(c1)N(Cc1ccccc1F)C(=O)c1ccccc1S2=O)N1CCC(Cc2ccccc2)CC1 (stereo not given)	x	x	22%	-42%[59 µM]	x	x
Cc1oc2cc3oc(=O)c(CCC(=O)N4C[C@H]5C[C@@H](C4)c4cccc(=O)n4C5)c(C)c3cc2c1C	x	x	-22%	15%	6%	x
O=C(Nc1ccc(CN2CCCCC2)cc1)Nc1ccc(Br)cc1Cl	-16%	12%	-8%	-11%	79µM*	x

Taken from the results shown (4 entries):
Molecule	ALDH1A1 inh	JMJD2E inh	miR-21 FLuc	G9a block	Sfp inh	LMNA splice mod
O=C(CSc1ccc(-c2cccs2)nn1)Nc1ccccc1C(F)(F)F	x	x	-15%	-35%[59 µM]	x	x
CC(=O)c1cccc(NC(=O)CSc2ccc(-c3ccco3)nn2)c1	x	x	4%	32µM*	20µM*	x
COc1ccc(-c2ccc(SCC(=O)Nc3cccc(C(C)=O)c3)nn2)cc1OC	-5%	-12%	19%	-22%	11%	x
O=C(CSc1ccc(-c2cccs2)nn1)Nc1cccc(F)c1	x	x	11%	18µM*	x	x

New compounds follow:
Molecule	ALDH1A1 inh	JMJD2E inh	miR-21 FLuc	G9a block	Sfp inh	LMNA splice mod
S=C(Nc1ccc(Br)cc1Cl)N1CCCC1	x	x	0%	16%	10%	x
CCOCCOC(=O)c1[nH]c2c(c1C)C(=O)CC(c1ccc(N(C)C)cc1)C2 (stereo not given)	13µM*	0%	8%	u	10%	-10%
Cc1c(C(=O)OC2CCCCCC2)[nH]c2c1C(=O)CC(c1ccc(N(C)C)cc1)C2 (stereo not given)	x	x	3%	5%[59 µM]	x	x
C/C=C/COC(=O)c1[nH]c2c(c1C)C(=O)CC(c1ccc(N(C)C)cc1)C2 (stereo not given)	5µM*	-5%	7%	35µM*	2%	-16%
CCC(C)OC(=O)c1[nH]c2c(c1C)C(=O)CC(c1ccc(N(C)C)cc1)C2 (stereo not given)	3.5µM*	0%	-3%	14µM*	-5%	u
NNC(=O)c1cc(S(=O)(=O)N2CCOCC2)c[nH]1	x	x	x	-22%[59 µM]	x	x
COc1ccc(C(=O)N/N=C(\CCC(=O)O)c2ccc(C(C)(C)C)cc2)cc1OC	u	46%	14%	-25%	13%	u
CCN1CCN(C(=O)NS(=O)(=O)c2ccc(C)cc2)CC1	x	x	0%	-35%	8%	x
O=C(CCc1nc2ccccc2c(=O)[nH]1)Nc1nnc(SCc2ccc(F)cc2)s1	x	x	x	13%[0.501 µM]	x	x
O=C(COC(=O)CCc1nc2ccccc2c(=O)[nH]1)Nc1ccccc1Cl	x	-9%	1%	-124%[59 µM]	-9%	x
C=CCn1c(C)cc(-c2csc(NC(=O)CCc3nc4ccccc4c(=O)[nH]3)n2)c1C	x	x	x	32µM*	x	x
N#Cc1ccc(NC(=O)COC(=O)CCc2nc3ccccc3c(=O)[nH]2)cc1	x	-7%	2%	50µM*	23%	x
O=C(CCc1nc2ccccc2c(=O)[nH]1)Nc1ccc(F)cc1	10%	-5%	-20%	17%	7%	9%
O=C(CCc1nc2ccccc2c(=O)[nH]1)Nc1nc(-c2cccs2)cs1	x	x	x	45µM*	x	x
